From ChEMBL document CHEMBL1932973, “5- and 6-membered (thio)lactones are prodrug type carbonic anhydrase inhibitors” (Bioorg Med Chem Lett, 2012)

Target: Carbonic anhydrase 9 (Homo sapiens, UniProt Q16790)
Test: Inhibition of human CA9 pre-incubated for 15 mins to 24 hrs measured after 6 hrs by phenol red-based stopped-flow CO2 hydrase assay

- Ki: > 100 µM
Compound: O=c1ccc2ccccc2o1 [COUMARIN]
